Test results as given in publication PMC11547827, “Discovery of Cyclic Peptide Inhibitors Targeted on TNFα-TNFR1 from Computational Design and Bioactivity Verification” (Molecules, 2024).
Entries after “also recorded” stand apart in the source; their conditions may differ.

Tests used:
L929 cells = conditions: R1_CC4, 5-200 μM, 24 h, CCK-8, 450 nm, n = 3
Procedure: L929 cells were seeded in a 96-well plate at a density of 8000 cells per well and cultured for 24 h under standard conditions. Then, the liquid in the wells was discarded, and 100 µL of medium containing different concentrations of cyclic peptides was added. After incubation for 24 h, the liquid in the well was discarded, and the medium was replaced with CCK-8 working solution (100 μL RPMI 1640 medium containing 5% CCK-8) and incubated in the dark for 2 h. The absorbance of each well at 450 nm was detected with a microplate reader. The same operation was performed with wells not seeded with cells as a blank group to eliminate systematic errors. Cell viability was calculated according to the following formula:(7) Cell viability(%)=(ODtest−ODblank)/(ODcontrol−ODblank)×100%

[1] = system: TNFα-mediated cytotoxicity in L929 cells; assay: Neutralization of TNFα induced necrosis in L929 cells
Procedure: L929 cells were seeded at a density of 8000 cells/well in a 96-well plate and incubated for 24 h in RPMI 1640 with 10% FBS at 37 °C. The experiment was divided into a blank group, a control group, a positive control group, and an experimental group. […] Serially diluted α_CC8 was added to cells and incubated at 37 °C, 5% CO2 for 2 h initially, and then 50 μL 10 ng/mL human TNFα was added and incubated overnight (17 h). 1 μg/mL Etanercept was used as a positive control. Subsequently, 100 μL 5% CCK-8 was added per well, followed by incubation of 2 h. The control group consisted of normal cultured cells without TNFα stimulation, while the blank control group contained empty wells without cells. At last, cell viability was confirmed by measuring the absorbance of each well at 450 nm. Cell viability was calculated according to Formula (7). Data was analyzed with SPSSAU (https://spssau.com/, Accessed on 14 August 2023) using the paired t-test to compare the differences between the experimental and control groups.

CC(C)C[C@@H]1NC(=O)[C@H](Cc2c[nH]cn2)NC(=O)[C@H](CC(N)=O)NC(=O)[C@H](CCC(=O)O)NC(=O)[C@H](CO)NC(=O)[C@H](C)NC(=O)[C@H]([C@@H](C)O)NC(=O)[C@H](Cc2ccccc2)NC(=O)[C@H](CO)NC(=O)CNC(=O)[C@H](CO)NC(=O)[C@H](CCC(=O)O)NC(=O)[C@@H](N)CSSC[C@@H](C(=O)O)NC(=O)[C@H](Cc2c[nH]cn2)NC(=O)[C@H](CCCNC(=N)N)NC1=O [R1_CC4]
survival rate of L929 cells (L929 cells): exceeds 90%
inhibition of TNFα-mediated cytotoxicity (in words) ([1]; L929 cells): effectively inhibit the TNFα-mediated cytotoxicity; also recorded: improve cell viability significantly by inhibiting TNFα-mediated necrosis
concentration at which survival rate increased significantly ([1]; L929 cells, human TNFα 10 ng/mL, 17 h, CCK-8, n = 3): 90 µM
increase of cell survival rate ([1]; R1_CC4 90 μM, premixed with human TNFα 2 h, then 17 h on L929, n = 3): 11.6%
